US20090175786A1

Biological target: gastrin releasing peptide receptor (GRP-R), human (human), P30550
Experiment: 125I-BBN competition, PC3 cells

EQRYGNQWAVGHLM (modifications not checked) [p…-NH2] showed an IC50 of 2.2 nM.
